For assay [1], the target named is T1, Caspase-3 (Homo sapiens) (UniProt P42574).
T1 sequence (whole entry): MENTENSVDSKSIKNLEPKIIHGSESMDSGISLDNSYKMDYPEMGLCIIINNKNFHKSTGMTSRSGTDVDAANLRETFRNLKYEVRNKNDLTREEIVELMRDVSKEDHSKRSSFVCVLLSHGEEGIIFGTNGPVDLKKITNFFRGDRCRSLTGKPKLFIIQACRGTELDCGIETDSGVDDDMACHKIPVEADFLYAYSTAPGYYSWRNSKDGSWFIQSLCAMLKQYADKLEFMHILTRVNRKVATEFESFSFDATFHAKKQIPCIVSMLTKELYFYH
In words: Activation of N-terminal His6-tagged recombinant procaspase-3 expressed in Escherichia coli assessed as appearance of caspase-3 mature large subunit p19 at 100 uM after 1 hr by SDS-PAGE.

Assay [2] addresses T1, Caspase-3 (Homo sapiens). In words: Activation of N-terminal His6-tagged recombinant procaspase-3 expressed in Escherichia coli assessed as appearance of caspase-3 mature large subunit p19 at 5 uM after 1 to 5 hrs by SDS-PAGE.
The target of assay [3] is T1, Caspase-3 (Homo sapiens). The assay is described as follows: Activation of N-terminal His6-tagged recombinant procaspase-3 expressed in Escherichia coli at pH of 5 to 5.5 by SDS-PAGE.
Assay [4] addresses T1, Caspase-3 (Homo sapiens). In words: Activation of N-terminal His6-tagged recombinant procaspase-3 expressed in Escherichia coli assessed as appearance of caspase-3 p32 subunit at 5 uM after 1 to 5 hrs by SDS-PAGE.
For assay [5], the target named is T1, Caspase-3 (Homo sapiens). The assay is described as follows: Activation of N-terminal His6-tagged recombinant procaspase-3 expressed in Escherichia coli assessed as induction of protein cleavage at 100 uM after 4 hrs by SDS-PAGE.
Assay [6] addresses T1, Caspase-3 (Homo sapiens). In words: Activation of procaspase-3-mediated apoptosis in human NCI-H226 cells isolated from BALB/c mouse xenograft at 50 to 100 mg/kg, po SID for 21 days measured after 1 week post last dose by Western blot analysis. Type of assay: organism-based.
The target of assay [7] is T1, Caspase-3 (Homo sapiens). In words: Activation of N-terminal His6-tagged recombinant procaspase-3 expressed in Escherichia coli assessed as hydrolysis of acetyl-DEVD-p-nitroanilide after 2 hrs by SDS-PAGE.

Activity calls are given as the source filed them. The calls are words filed in the database; no cut-off is given here.

On to `C=CCc1cccc(/C=N/NC(=O)CN2CCN(Cc3ccccc3)CC2)c1O` [PAC-1], for which the result on Caspase-3 (Homo sapiens) [1], at Caspase-3 (Homo sapiens) [2], on Caspase-3 (Homo sapiens) [4] and on Caspase-3 (Homo sapiens) [6] was Active. The result on Caspase-3 (Homo sapiens) [3] was inactive. In addition, the figures for the Activity on Caspase-3 (Homo sapiens) [5] and at Caspase-3 (Homo sapiens) [7] were > 50% and “Dose-dependent effect”, respectively.

(Values after ChEMBL document CHEMBL1221188, “Small-molecule activation of procaspase-3 to caspase-3 as a personalized anticancer strategy” (Nat Chem Biol, 2006).)
